{
  "sequences": {"note": "The chains behind the UniProt entries cited, without tags or fusion partners.", "UniProt P41143, whole entry": "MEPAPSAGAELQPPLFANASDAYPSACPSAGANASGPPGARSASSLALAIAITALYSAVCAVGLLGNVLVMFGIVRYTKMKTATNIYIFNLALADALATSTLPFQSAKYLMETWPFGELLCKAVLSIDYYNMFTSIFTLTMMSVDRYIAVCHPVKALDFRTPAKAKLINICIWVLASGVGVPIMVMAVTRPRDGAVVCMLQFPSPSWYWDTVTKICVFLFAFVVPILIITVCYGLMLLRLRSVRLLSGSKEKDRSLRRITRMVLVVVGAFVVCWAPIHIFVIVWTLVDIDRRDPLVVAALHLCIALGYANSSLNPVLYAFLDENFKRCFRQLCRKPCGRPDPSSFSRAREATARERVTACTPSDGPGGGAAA", "UniProt P41145, whole entry": "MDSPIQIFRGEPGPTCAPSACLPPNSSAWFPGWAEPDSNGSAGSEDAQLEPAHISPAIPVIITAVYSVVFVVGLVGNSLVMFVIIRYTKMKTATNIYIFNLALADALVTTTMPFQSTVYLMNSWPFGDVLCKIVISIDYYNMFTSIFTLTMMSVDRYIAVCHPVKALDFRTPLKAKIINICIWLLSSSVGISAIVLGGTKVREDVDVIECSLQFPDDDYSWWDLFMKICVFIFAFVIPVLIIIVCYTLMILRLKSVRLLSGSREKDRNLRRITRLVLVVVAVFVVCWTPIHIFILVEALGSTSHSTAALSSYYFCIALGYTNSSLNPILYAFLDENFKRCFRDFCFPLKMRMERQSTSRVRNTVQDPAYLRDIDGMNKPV", "UniProt P35372, whole entry": "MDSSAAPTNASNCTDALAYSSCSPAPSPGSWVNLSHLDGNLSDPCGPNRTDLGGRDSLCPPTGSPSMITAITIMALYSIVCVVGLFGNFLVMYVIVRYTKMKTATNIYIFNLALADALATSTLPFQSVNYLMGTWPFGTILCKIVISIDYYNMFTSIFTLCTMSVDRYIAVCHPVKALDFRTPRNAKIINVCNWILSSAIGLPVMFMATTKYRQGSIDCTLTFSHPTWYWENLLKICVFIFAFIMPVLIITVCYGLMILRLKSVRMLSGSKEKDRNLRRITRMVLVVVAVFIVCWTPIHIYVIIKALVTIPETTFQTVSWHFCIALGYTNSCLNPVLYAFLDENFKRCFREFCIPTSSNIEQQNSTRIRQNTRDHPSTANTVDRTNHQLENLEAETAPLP"},
  "source": "ChEMBL document CHEMBL1129385",
  "about": "“Aspartic acid conjugates of 2-(3,4-dichlorophenyl)-N-methyl-N-[(1S)-1(3-aminophenyl)-2-(1-pyrrolidi nyl) ethyl]acetamide: kappa opioid receptor agonists with limited access to the central nervous system” (J Med Chem, 1996)",
  "settings_in_all_cases": "Abdomen",
  "key": {"[1]": {"target": "Delta-type opioid receptor (Homo sapiens) (UniProt P41143)", "experiment": "Compound was tested for the NTI Delta receptor Selectivity of Antinociception in the Mouse Abdominal Stretch Assay by using antagonists; ED50 ratio"}, "[2]": {"target": "Kappa-type opioid receptor (Homo sapiens) (UniProt P41145)", "experiment": "Compound was tested for the nor-BNIb kappa receptors Selectivity of Antinociception in the Mouse Abdominal Stretch Assay by using antagonists; ED50 ratio"}, "[3]": {"target": "Mu-type opioid receptor (Homo sapiens) (UniProt P35372)", "experiment": "Compound was tested for the beta-FNA Mu receptors Selectivity of Antinociception in the Mouse Abdominal Stretch Assay by using antagonists; ED50 ratio"}},
  "data": [
    {"smiles": "CN(C(=O)Cc1ccc(Cl)c(Cl)c1)[C@H](CN1CCCC1)c1ccccc1", "values": [
      {"measurement": "Ratio", "setting": "[1]", "result": 1.19},
      {"measurement": "Ratio", "setting": "[2]", "result": 2.31},
      {"measurement": "Ratio", "setting": "[3]", "result": 1.72}
    ]}
  ]
}
